Experimental findings from ChEMBL document CHEMBL1124741, “Probes for narcotic receptor mediated phenomena. 17. Synthesis and evaluation of a series of trans-3,4-dichloro-N-methyl-N-[2-(1-pyrrolidinyl)cyclohexyl]benzeneacet amide (U50,488) related isothiocyanate derivatives as opioid receptor affinity ligands” (1990) are described below.

Amino acid sequences for entries named in this document (tags omitted).
UniProt P41144, whole entry: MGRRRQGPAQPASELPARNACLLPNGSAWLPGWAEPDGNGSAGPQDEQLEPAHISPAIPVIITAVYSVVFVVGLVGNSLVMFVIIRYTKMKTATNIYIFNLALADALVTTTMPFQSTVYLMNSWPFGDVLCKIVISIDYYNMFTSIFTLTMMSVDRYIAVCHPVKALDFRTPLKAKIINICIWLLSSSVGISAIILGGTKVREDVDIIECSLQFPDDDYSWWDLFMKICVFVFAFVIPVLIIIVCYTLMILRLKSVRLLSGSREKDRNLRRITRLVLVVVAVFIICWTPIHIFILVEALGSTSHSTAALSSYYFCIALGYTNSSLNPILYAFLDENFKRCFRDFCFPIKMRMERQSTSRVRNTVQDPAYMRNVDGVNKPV

In the assay the target is Kappa-type opioid receptor (Cavia porcellus) (UniProt P41144). Put plainly: In vitro inhibition of [3H]U-69593 binding to Opioid receptor kappa 1 of guinea pig brain. The following applies: concentration not given here.

What is called inhibition is the change of the read-out against control, counted positive when it falls. For `CN(C(=O)[C@H](N)c1ccccc1)[C@H]1CCCC[C@@H]1N1CCCC1`, the inhibition came to 114%. With `CN(C(=O)[C@H](N)c1ccccc1)[C@@H]1CCCC[C@H]1N1CCCC1`, the inhibition was 86.5%. Regarding `CN(C(=O)[C@@H](N)c1ccccc1)[C@@H]1CCCC[C@H]1N1CCCC1`, the inhibition was 120%. On to `CN(C(=O)[C@@H](N)c1ccccc1)[C@H]1CCCC[C@@H]1N1CCCC1`, for which the inhibition amounted to 85.6%.
